This is an account of results in patent US7169786B2, “Isoxazoline derivatives as anti-depressants” (priority 2001, dated 2007).

Chains of the proteins cited; added tags and fusions are not shown.
UniProt P08913, whole entry: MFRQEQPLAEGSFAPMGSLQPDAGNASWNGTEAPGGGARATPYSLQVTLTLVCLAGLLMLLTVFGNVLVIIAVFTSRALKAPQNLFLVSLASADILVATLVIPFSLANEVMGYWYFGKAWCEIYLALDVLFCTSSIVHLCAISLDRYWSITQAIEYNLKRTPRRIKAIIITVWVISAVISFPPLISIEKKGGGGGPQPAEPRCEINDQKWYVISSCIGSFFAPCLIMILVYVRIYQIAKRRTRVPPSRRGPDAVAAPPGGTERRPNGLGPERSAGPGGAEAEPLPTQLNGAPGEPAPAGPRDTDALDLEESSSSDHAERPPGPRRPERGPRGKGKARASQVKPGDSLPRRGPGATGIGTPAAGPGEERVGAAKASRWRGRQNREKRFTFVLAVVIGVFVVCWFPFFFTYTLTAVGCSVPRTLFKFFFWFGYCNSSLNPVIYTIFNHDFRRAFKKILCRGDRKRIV

The target of this test is T1, hα2A receptor (Homo sapiens, UniProt P08913).
T1 construct: expressed in transfected cells
Kind of test: Radioligand binding experiment for hα2A receptor ([3H]-raulwolscine). The note with it: for IC50: read-out: hα2A pIC50 (converted); for pIC50: hα2A pIC50, membranes of CHO cells expressing human α2A receptor. The protocol:
The interaction of the compounds of Formula (I) with hα2-receptors and h5-HT-transporters was assessed in in vitro radioligand binding experiments. In general, a low concentration of a radioligand with a high binding affinity for a particular receptor or transporter is incubated with a sample of a tissue preparation enriched in a particular receptor or transporter or with a preparation of cells expressing cloned human receptors in a buffered medium. During the incubation, the radioligand binds to the receptor or transporter. When equilibrium of binding is reached, the receptor bound radioactivity is separated from the non-bound radioactivity, and the receptor- or transporter-bound activity is counted. The interaction of the test compounds with the receptor is assessed in competition binding experiments. Various concentrations of the test compound are added to the incubation mixture containing the receptor- or transporter preparation and the radioligand. The test compound in proportion to its binding affinity and its concentration inhibits binding of the radioligand. The radioligand used for hα2A, hα2B and hα2C receptor binding was [^3H]-raulwolscine and for the h5-HT transporter was [^3H]paroxetine.
CHO cells, stabile transfected with human adrenergic-α2A-, -α2B or α2C receptor cDNA, were cultured in Dulbecco's Modified Eagle's Medium (DMEM)/Nutrient mixture Ham's F12 (ratio 1:1)(Gibco, Gent-Belgium) supplemented with 10% heat inactivated fetal calf serum (Life Technologies, Merelbeke-Belgium) and antibiotics (100 IU/ml penicillin G, 100 μg/ml streptomycin sulphate, 110 μg/ml pyruvic acid and 100 μg/ml L-glutamine). One day before collection, cells were induced with 5 mM sodiumbutyrate. Upon 80–90% of confluence, cells were scraped in phosphate buffered saline without Ca^2+ and Mg^2+ and collected by centrifugation at 1500×g for 10 min. The cells were homogenised in Tris-HCl 50 mM using an Ultraturrax homogenizer and centrifuged for 10 min at 23,500×g. The pellet was washed once by resuspension and rehomogenization and the final pellet was resuspended in Tris-HCl, divided in 1 ml aliquots and stored at −70° C.
Membranes were thawed and re-homogenized in incubation buffer (glycylglycine 25 mM, pH 8.0). […] Filters were rinsed extensively with ice-cold rinsing buffer (Tris-HCl 50 mM pH 7.4). Filter-bound radioactivity was determined by scintillation counting in a Topcount (Packard, Meriden, Conn.) and results were expressed as counts per minute (cpm). Non-specific binding was determined in the presence of 1 μM oxymetazoline for hα2A- and hα2B receptors and 1 μM spiroxatrine for hα2C receptors.
Data from assays in the presence of compound were calculated as a percentage of total binding measured in the absence of test compound. Inhibition curves, plotting percent of total binding versus the log value of the concentration of the test compound, were automatically generated, and sigmoidal inhibition curves were fitted using non-linear regression. The pIC50 values of test compounds were derived from individual curves.

SMILES strings stand for the structures. pIC50: −log10 of the molar value. Where two headings read alike, the source gives them in different places.

With `COc1cc2c(cc1OC)C1=NOC(CN3CCN(C/C=C/c4ccccc4)CC3)C1CO2` (single isomer, unassigned) [Compound 1], the IC50 was 6.31 nM.
The same measure, in the same setting: the same measure for `COc1cc2c(cc1OC)C1=NOC(CN3CCN(C/C=C/c4ccccc4)CC3)C1CO2` (single isomer, unassigned) [Compound 8]: 4.57 nM.
The same measure, in the same setting: to `COc1cc2c(cc1OC)C1=NOC(CN3CCN(Cc4ccc5ccccc5c4)CC3)C1CO2` (single isomer, unassigned) [Compound 16] belongs 5.37 nM.
For `COc1cc2c(cc1OC)C1=NOC(CN3CCN(C/C(C)=C/c4ccccc4)CC3)C1CO2` (single isomer, unassigned) [Compound 129], the IC50 (membranes of CHO cells expressing human α2A receptor, [3H]raulwolscine 1 nM) was 12.3 nM.
Consider `COc1cc2c(cc1OC)C1=NOC(CN3CCN(C/C=C(\C)c4ccccc4)CC3)C1CO2` (single isomer, unassigned) [Compound 320], for which the IC50 was 5.89 nM.
The compound `CCNC(=O)Oc1cc2c(cc1OC)C1=NOC(CN3CCN(C/C(C)=C/c4ccccc4)CC3)C1CO2` (single isomer, unassigned) [Compound 340] showed a pIC50 ([3H]raulwolscine 1 nM) of 9.00.
For `COc1ccc2c(c1)OCC1C2=NOC1CN1CCN(CC=Cc2ccccc2)CC1` (centres unmarked) [Compound 217], the IC50 is 1.66 nM.
In turn, `CCNC(=O)Oc1ccc2c(c1)OCC1C2=NOC1CN1CCN(CC(C)=Cc2ccccc2)CC1` (centres unmarked) [Compound 238] had a pIC50 ([3H]raulwolscine 1 nM) of 8.56.

One may read the pIC50 as the negative decadic logarithm of the IC50, by convention in mol/L. Low values mean a high IC50, high ones a low IC50.
